Results on three compounds are retold here after patent US7314861B2, “Melanin-concentrating hormone analogs” (priority 2001, dated 2008).

By UniProt entry, the sequences of proteins in these tests, tags left out. Where a name states a change or a piece, a line headed by the entry shows the natural chain unless it says otherwise.
UniProt Q99705: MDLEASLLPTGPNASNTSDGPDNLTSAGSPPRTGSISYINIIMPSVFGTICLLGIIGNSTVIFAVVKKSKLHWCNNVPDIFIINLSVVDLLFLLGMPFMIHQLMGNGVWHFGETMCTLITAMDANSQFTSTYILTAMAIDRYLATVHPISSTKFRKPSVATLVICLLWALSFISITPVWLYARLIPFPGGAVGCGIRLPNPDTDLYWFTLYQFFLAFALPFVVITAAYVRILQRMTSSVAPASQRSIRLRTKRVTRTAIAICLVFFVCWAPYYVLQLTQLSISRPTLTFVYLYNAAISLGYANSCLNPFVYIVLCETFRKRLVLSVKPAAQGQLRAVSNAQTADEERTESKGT
UniProt Q969V1: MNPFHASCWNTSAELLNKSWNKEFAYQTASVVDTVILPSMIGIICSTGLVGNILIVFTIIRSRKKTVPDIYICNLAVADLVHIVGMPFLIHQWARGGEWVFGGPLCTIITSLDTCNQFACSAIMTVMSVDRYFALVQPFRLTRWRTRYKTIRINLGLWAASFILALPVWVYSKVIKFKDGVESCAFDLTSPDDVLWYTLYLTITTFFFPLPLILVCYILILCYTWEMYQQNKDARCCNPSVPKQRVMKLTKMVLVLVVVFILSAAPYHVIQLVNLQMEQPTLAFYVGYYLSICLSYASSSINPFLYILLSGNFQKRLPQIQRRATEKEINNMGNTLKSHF

pEC50, pIC50: −log10 of the molar value.

Test [1] has as its target T1, human MCH-1R (Homo sapiens, UniProt Q99705). The test is described as follows: Aequorin bioluminescence functional assay, MCH-1R. The conditions noted are these: for MCH-1R Activation %: Table 1, % Activation at 10 μM, aequorin functional assay.
The target in the next test is human MCH-R2 (Homo sapiens, UniProt Q969V1). The test is described as follows: Aequorin bioluminescence functional assay, MCH-2R. The settings on record: for EC50: MCH-2R EC50 (nM), 293-AEQ17 cells; for EC50 / MCH-2R Activation %: Table 1, aequorin functional assay; for MCH-2R Activation %: % Activation at 10 μM.
The target of test [2] is T1, human MCH-1R. The test is described as follows: Radiolabeled MCH-R binding assay (SPA based), MCH-1R.

With `CC(=O)N[C@@H](CCCNC(=N)N)C(=O)N[C@H]1CSSC[C@@H](C(N)=O)NC(=O)[C@@H]2CCCN2C(=O)[C@H](CCCNC(=N)N)NC(=O)[C@H](Cc2ccc(O)cc2)NC(=O)[C@H](C(C)C)NC(=O)[C@H](CCCNC(=N)N)NC(=O)[C@@H](C)NC(=O)[C@H](CC(C)C)NC(=O)[C@H](C)NC1=O` [compound 35], the pEC50 (usually the EC50 on a negative log10 scale, so that one unit is a factor of ten) at human MCH-1R [1] is below 5.00. For the same compound, on human MCH-R2, the EC50 (usually the midpoint of the concentration-response curve) worked out at 140 nM and the “MCH-2R Activation %” value turned out to be 120%. For the same compound, on human MCH-R2 (greater binding and/or activation at MCH-2R than at MCH-1R), the “selective activity at MCH-2R over MCH-1R” value is listed as “selectively active”.
For the compound `CSCC[C@@H]1NC(=O)[C@@H](NC(=O)[C@H](CCCNC(=N)N)NC(C)=O)CSSC[C@@H](C(N)=O)NC(=O)CN(C)C(=O)[C@H](CCCNC(=N)N)NC(=O)[C@H](Cc2ccc(O)cc2)NC(=O)[C@H](C(C)C)NC(=O)[C@H](CCCNC(=N)N)NC(=O)CNC(=O)[C@H](CC(C)C)NC1=O` [compound 32], the “MCH-1R Activation %” value on human MCH-1R [1] is 113%. In addition, at human MCH-R2, the EC50 stood at 12 nM and the “MCH-2R Activation %” value was determined as 91%.
As for `CCCC[C@@H]1NC(=O)[C@@H](NC(=O)[C@H](CCCNC(=N)N)NC(C)=O)CSSC[C@@H](C(N)=O)NC(=O)[C@@H]2CCCN2C(=O)[C@H](CCCNC(=N)N)NC(=O)[C@H](Cc2ccc(O)cc2)NC(=O)[C@H](C(C)C)NC(=O)[C@H](CCCNC(=N)N)NC(=O)CNC(=O)[C@H](CC(C)C)NC1=O` [compound 5], the “MCH-1R Activation %” value at human MCH-1R [1] amounted to 105%. On human MCH-R2, the EC50 is 12 nM and the “MCH-2R Activation %” value was found to be 105%. Besides, the pIC50 (as a rule, −log10 of the IC50, conventionally taken in molar units) at human MCH-1R [2] is 9.30.
